Source: publication PMC11079024, “Identification of a family of species-selective complex I inhibitors as potential anthelmintics” (Nature Communications, 2024)

Amino acid sequences for entries named in this document (tags omitted). A change or cut given only in a name is not applied to a line headed by its entry. Residues count along the entry.
UniProt P03888: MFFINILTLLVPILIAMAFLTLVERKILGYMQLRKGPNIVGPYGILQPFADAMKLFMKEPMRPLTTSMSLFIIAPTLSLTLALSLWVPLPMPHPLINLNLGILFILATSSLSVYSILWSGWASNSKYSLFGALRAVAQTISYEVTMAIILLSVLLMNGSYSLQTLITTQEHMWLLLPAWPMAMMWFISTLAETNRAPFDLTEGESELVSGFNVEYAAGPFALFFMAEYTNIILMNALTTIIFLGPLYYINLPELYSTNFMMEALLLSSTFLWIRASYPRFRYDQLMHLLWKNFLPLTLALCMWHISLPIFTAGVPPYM
UniProt Q91WD5, 34-463: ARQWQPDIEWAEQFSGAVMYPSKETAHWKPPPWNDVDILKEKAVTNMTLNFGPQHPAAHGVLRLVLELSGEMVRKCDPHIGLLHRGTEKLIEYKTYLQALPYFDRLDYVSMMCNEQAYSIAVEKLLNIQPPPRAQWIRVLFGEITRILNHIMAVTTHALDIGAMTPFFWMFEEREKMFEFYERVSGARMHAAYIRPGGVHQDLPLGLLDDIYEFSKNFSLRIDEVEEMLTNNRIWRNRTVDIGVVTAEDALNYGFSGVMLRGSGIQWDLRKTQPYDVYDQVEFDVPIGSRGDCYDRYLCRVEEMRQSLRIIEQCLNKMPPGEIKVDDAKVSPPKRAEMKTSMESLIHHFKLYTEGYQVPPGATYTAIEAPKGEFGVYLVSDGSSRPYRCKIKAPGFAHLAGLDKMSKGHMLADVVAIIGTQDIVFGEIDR
UniProt Q9DC70, 36-224: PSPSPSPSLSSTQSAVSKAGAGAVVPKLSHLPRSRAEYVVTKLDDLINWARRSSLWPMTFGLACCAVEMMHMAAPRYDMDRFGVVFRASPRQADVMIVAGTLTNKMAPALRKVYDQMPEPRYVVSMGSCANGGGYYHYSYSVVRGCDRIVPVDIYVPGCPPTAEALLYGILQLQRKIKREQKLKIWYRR
UniProt P24887: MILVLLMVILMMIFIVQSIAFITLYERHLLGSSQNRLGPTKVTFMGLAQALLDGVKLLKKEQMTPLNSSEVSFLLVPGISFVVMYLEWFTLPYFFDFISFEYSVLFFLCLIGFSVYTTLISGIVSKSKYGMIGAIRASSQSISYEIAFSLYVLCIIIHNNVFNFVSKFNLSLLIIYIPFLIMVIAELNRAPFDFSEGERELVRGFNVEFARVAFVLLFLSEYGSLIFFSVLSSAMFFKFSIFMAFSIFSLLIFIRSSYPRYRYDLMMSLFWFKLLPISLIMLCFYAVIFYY
UniProt Q93873, 31-482: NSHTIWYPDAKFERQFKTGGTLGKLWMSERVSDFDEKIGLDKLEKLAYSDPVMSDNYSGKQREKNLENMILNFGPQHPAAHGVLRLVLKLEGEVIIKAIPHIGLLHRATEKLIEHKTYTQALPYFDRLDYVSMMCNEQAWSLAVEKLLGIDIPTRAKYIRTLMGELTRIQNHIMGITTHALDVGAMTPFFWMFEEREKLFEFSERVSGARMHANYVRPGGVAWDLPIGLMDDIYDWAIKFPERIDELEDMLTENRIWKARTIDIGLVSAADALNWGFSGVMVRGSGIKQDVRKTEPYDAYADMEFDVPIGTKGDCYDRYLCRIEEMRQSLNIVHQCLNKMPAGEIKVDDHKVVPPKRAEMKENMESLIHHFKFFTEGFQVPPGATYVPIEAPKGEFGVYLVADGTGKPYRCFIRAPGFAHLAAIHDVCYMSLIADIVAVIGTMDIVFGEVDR
UniProt Q94360, 17-199: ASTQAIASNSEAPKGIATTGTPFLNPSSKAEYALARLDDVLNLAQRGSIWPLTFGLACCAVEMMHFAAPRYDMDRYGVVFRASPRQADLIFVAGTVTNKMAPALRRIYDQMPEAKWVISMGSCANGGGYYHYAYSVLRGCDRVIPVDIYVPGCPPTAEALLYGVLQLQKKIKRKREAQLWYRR
UniProt P03887, whole entry: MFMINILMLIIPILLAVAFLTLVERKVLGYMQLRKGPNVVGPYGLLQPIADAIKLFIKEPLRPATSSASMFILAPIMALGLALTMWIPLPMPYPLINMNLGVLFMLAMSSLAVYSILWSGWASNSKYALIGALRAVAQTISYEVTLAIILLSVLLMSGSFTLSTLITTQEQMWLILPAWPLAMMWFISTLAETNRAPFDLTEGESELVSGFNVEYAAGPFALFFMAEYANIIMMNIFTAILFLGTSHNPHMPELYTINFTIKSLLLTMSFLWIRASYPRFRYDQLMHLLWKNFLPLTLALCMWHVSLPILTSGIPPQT
UniProt P17694, 34-463: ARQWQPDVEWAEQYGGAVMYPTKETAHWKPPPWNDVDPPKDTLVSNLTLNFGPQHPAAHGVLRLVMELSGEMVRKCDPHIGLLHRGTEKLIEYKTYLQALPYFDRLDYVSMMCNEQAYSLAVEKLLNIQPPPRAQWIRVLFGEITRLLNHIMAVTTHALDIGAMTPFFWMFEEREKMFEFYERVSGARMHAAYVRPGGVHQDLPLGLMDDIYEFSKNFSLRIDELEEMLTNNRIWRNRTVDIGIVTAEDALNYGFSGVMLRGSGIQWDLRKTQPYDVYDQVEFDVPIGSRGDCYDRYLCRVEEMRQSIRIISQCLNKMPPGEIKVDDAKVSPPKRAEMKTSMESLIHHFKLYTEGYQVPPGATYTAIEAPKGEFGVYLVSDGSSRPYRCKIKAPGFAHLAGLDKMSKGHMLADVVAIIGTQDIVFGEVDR
UniProt P42026, 38-216: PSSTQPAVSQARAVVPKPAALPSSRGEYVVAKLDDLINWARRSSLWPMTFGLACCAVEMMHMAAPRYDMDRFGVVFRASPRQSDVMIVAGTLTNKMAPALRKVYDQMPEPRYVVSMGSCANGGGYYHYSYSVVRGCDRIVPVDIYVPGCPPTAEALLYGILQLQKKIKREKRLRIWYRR

Columns and labels:
L1 C. briggsae (AF16) = test: Liquid development and viability assay, C. briggsae; assay type: cell-based, Caenorhabditis briggsae; details: liquid growth and development assay, 1 = like DMSO control, 0 = death
L1 P. pacificus (PS312) = test: Liquid development and viability assay, P. pacificus; assay type: cell-based, Pristionchus pacificus; details: liquid growth and development assay, 1 = like DMSO control, 0 = death
L1 wild-type C. elegans = details: for KCN survival assay value relative to DMSO control, Mean: mean of replicates; for KCN survival assay value relative to DMSO control, individual replicate: single replicate
[1] = biological target: M. musculus (heart) complex I (Mus musculus, UniProt P03888+Q91WD5+Q9DC70); assay type: biochemical; details: mouse, heart mitochondria
[2] = biological target: C. elegans (N2) complex I (NADH:ubiquinone oxidoreductase) (Caenorhabditis elegans, UniProt P24887+Q93873+Q94360); test: biochemical; assay type: biochemical; details: for in vitro complex I activity relative to solvent control, individual replicate: wild-type C. elegans; for in vitro complex I activity relative to solvent control, individual replicate / percent (%) in vitro complex I activity relative to solvent control: single replicate; for percent (%) in vitro complex I activity relative to solvent control: wild-type C. elegans mitochondria
[3] = biological target: B. taurus (heart) complex I (Bos taurus, UniProt P03887+P17694+P42026); assay type: biochemical; details: heart mitochondria
in vitro = details: human, HEK293 cells (Flp-In-293)

With `Cc1ccccc1OCCCCn1cnc2ccccc21` [CB7732524] as the compound, how does the “viability score (0-1) relative to DMSO controls” value (L1 C. briggsae (AF16); 2 µM) read?
The value was 1.000.

What about the “viability score (0-1) relative to DMSO controls” value (L1 C. briggsae (AF16); 3.9 µM) of the same compound?
The value was 1.000.

And the “viability score (0-1) relative to DMSO controls” value (L1 C. briggsae (AF16); 7.8 µM)?
Its value is 1.000.

What about the “viability score (0-1) relative to DMSO controls” value (L1 C. briggsae (AF16); 15.6 µM) of the same compound?
Its value is 1.000.

What about the “viability score (0-1) relative to DMSO controls” value (L1 C. briggsae (AF16); 31.3 µM) of the same compound?
The value was 0.799.

And the “viability score (0-1) relative to DMSO controls” value (L1 C. briggsae (AF16); 62.5 µM)?
Its value is 0.033.

And the “viability score (0-1) relative to DMSO controls” value (L1 C. briggsae (AF16); 125 µM)?
Its value is 0.011.

And the “viability score (0-1) relative to DMSO controls” value (L1 C. briggsae (AF16); 250 µM)?
The value was 0.0064.

What about the “viability score (0-1) relative to DMSO controls” value (L1 P. pacificus (PS312); 2 µM) of the same compound?
Its value is 1.000.

What about the “viability score (0-1) relative to DMSO controls” value (L1 P. pacificus (PS312); 3.9 µM) of the same compound?
The value was 1.000.

And the “viability score (0-1) relative to DMSO controls” value (L1 P. pacificus (PS312); 7.8 µM)?
Its value is 1.000.

What about the “viability score (0-1) relative to DMSO controls” value (L1 P. pacificus (PS312); 15.6 µM) of the same compound?
The value was 1.000.

What about the “viability score (0-1) relative to DMSO controls” value (L1 P. pacificus (PS312); 31.3 µM) of the same compound?
The value was 0.022.

What about the “viability score (0-1) relative to DMSO controls” value (L1 P. pacificus (PS312); 62.5 µM) of the same compound?
The value was 0.013.

And the “viability score (0-1) relative to DMSO controls” value (L1 P. pacificus (PS312); 125 µM)?
Its value is 0.018.

What about the “viability score (0-1) relative to DMSO controls” value (L1 P. pacificus (PS312); 250 µM) of the same compound?
The value was 0.015.

What does the source list for `CC(C)(C)c1ccc(CCOc2ncnc3ccccc23)cc1` [Fenazaquin, reference compound]?
KCN survival assay value relative to DMSO control, Mean (L1 wild-type C. elegans; dose 0.2 µM, […]): 0.996; KCN survival assay value relative to DMSO control, Mean (L1 wild-type C. elegans; dose 0.4 µM, […]): 0.698; KCN survival assay value relative to DMSO control, Mean (L1 wild-type C. elegans; dose 0.8 µM, […]): 0.289; KCN survival assay value relative to DMSO control, Mean (L1 wild-type C. elegans; dose 1.6 µM, […]): 0.082; KCN survival assay value relative to DMSO control, Mean (L1 wild-type C. elegans; dose 3.1 µM, […]): 0.0014; KCN survival assay value relative to DMSO control, Mean (L1 wild-type C. elegans; dose 6.3 µM, […]): 0.000; KCN survival assay value relative to DMSO control, individual replicate (L1 wild-type C. elegans; dose 6.3 µM, […]): 0.000; KCN survival assay value relative to DMSO control, Mean (L1 wild-type C. elegans; dose 12.5 µM, […]): 0.000; KCN survival assay value relative to DMSO control, individual replicate (L1 wild-type C. elegans; dose 12.5 µM, […]): 0.000; KCN survival assay value relative to DMSO control, Mean (L1 wild-type C. elegans; dose 25 µM, […]): 0.000; KCN survival assay value relative to DMSO control, individual replicate (L1 wild-type C. elegans; dose 25 µM, […]): 0.000; KCN survival assay value relative to DMSO control, Mean (L1 wild-type C. elegans; dose 50 µM, […]): 0.000; KCN survival assay value relative to DMSO control, individual replicate (L1 wild-type C. elegans; dose 50 µM, […]): 0.000; KCN survival assay value relative to DMSO control, Mean (L1 wild-type C. elegans; dose 100 µM, […]): 0.0016; M. musculus: C. elegans IC50 Fold Change [1]: 5.0; in vitro complex I activity relative to solvent control, individual replicate ([2]; dose 0.0001 µM): 87.816% and 89.750% and 92.618% and 90.086% and 96.070% and 109.239%; in vitro complex I activity relative to solvent control, individual replicate ([2]; dose 0.0005 µM): 89.701% and 81.002% and 81.804% and 90.491% and 91.484% and 103.606%; in vitro complex I activity relative to solvent control, individual replicate ([2]; dose 0.001 µM): 78.976% and 77.909% and 82.564% and 82.306% and 93.040%; in vitro complex I activity relative to solvent control, individual replicate ([2]; dose 0.0025 µM): 58.940% and 63.076% and 61.159% and 62.658% and 70.496%; in vitro complex I activity relative to solvent control, individual replicate ([2]; dose 0.005 µM): 42.842% and 44.309% and 45.411% and 42.722% and 34.893%; in vitro complex I activity relative to solvent control, individual replicate ([2]; dose 0.013 µM): 23.550% and 27.353% and 27.574% and 18.988% and 20.774%; in vitro complex I activity relative to solvent control, individual replicate ([2]; dose 0.025 µM): 16.646% and 10.417% and 16.067% and 16.398% and 5.080% and 10.303%; in vitro complex I activity relative to solvent control, individual replicate ([2]; dose 0.063 µM): 5.065% and 2.518% and 8.644% and 7.543% and 1.518% and 7.151%; in vitro complex I activity relative to solvent control, individual replicate ([2]; dose 0.125 µM): 0.729% and 0.000% and 4.279% and 4.891% and 2.074% and 3.228%; in vitro complex I activity relative to solvent control, individual replicate ([2]; dose 0.313 µM): 0.000% and 4.527% and 1.352% and 0.772% and 3.633%; in vitro complex I activity relative to solvent control, individual replicate ([2]; dose 0.625 µM): 5.097% and 1.288% and 0.000% and 2.023% and 4.656%; in vitro complex I activity relative to solvent control, individual replicate ([2]; dose 1.5 µM): 2.783% and 1.576% and 0.000% and 3.503% and 3.624%; in vitro complex I activity relative to solvent control, individual replicate ([2]; dose 3 µM): 2.117% and 0.219% and 0.000% and 1.465% and 5.101%; in vitro complex I activity relative to solvent control, individual replicate ([2]; dose 7.5 µM): 1.752% and 1.384% and 0.100% and 0.207% and 0.000% and 5.893%; in vitro complex I activity relative to solvent control, individual replicate ([2]; dose 15 µM): 2.173% and 2.316% and 0.000% and 0.653% and 4.013%; in vitro complex I activity relative to solvent control, individual replicate ([2]; dose 37.5 µM): 0.000% and 0.877% and 0.746% and 2.216% and 7.314%; in vitro complex I activity relative to solvent control, individual replicate ([2]; dose 75 µM): 3.481% and 2.659% and 1.359% and 4.169% and 0.000% and 7.148%; B. taurus: C. elegans IC50 Fold Change (Complex I IC50 ~Fold Change) [3]: 5.7

With `COc1cc2c(cc1OC)C(/C=C/c1ccc(N(C)C)cc1)=NCC2` [NPD6303] as the compound, how does the “M. musculus: C. elegans IC50 Fold Change” value [1] read?
The value was 2.9.

What about the “percent (%) in vitro complex I activity relative to solvent control” value ([2]; 0.125 µM) of the same compound?
The value was 87.998% and 93.858%.

And the “percent (%) in vitro complex I activity relative to solvent control” value ([2]; 0.313 µM)?
The value was 86.077% and 96.329%.

What about the “percent (%) in vitro complex I activity relative to solvent control” value ([2]; 0.625 µM) of the same compound?
Its value is 108.371% and 107.823%.

And the “percent (%) in vitro complex I activity relative to solvent control” value ([2]; 3 µM)?
Its value is 88.910% and 97.542%.

What about the “percent (%) in vitro complex I activity relative to solvent control” value ([2]; 7.5 µM) of the same compound?
The value was 63.062% and 70.811%.

And the “percent (%) in vitro complex I activity relative to solvent control” value ([2]; 15 µM)?
The value was 33.771% and 49.973% and 56.558%.

What about the “percent (%) in vitro complex I activity relative to solvent control” value ([2]; 37.5 µM) of the same compound?
Its value is 10.655% and 12.339% and 24.560%.

What about the “percent (%) in vitro complex I activity relative to solvent control” value ([2]; 75 µM) of the same compound?
The value was 11.807% and 4.397% and 17.534%.

And the “B. taurus: C. elegans IC50 Fold Change (Complex I IC50 ~Fold Change)” value [3]?
Its value is 2.8.

Which results are given for `Brc1ccccc1OCCCCn1cnc2ccccc21` [Compound 7924576]?
Relative Motility (L1 wild-type C. elegans; 50 μM, […], worm motility 3 hours after the removal of KCN (endpoint), relative to DMSO controls, single biological replicate): 0.075; C. elegans KCN Survival (L1 wild-type C. elegans; Dose 0.2 µM, mean of at least three biological replicates): 0.973; viability at 2 days, 12.5 µM (in vitro): 97.3%; activity at 37.5 µM ([2]; Dose 37.5 µM, read-out: C. elegans mitochondrial complex I activity): 2.65%; B. taurus: C. elegans IC50 Fold Change (Complex I IC50 ~Fold Change) [3]: 2.65; Complex I IC50 ~Fold Change [3]: 2.65; IC50 Fold change [3]: 2.65

Several values for one entry are separate records, joined by “and”; a condition that tells them apart may be missing. Equal entries are not always repeated. Where two headings read alike, the source gives them in different places.
